Source: ChEMBL document CHEMBL3120088, “Discovery of selective small molecule type III phosphatidylinositol 4-kinase alpha (PI4KIIIα) inhibitors as anti hepatitis C (HCV) agents” (J Med Chem, 2014)

Columns and labels:
Homo sapiens [1] = organism: Homo sapiens; experiment: Selectivity ratio of IC50 for PI3Kgamma (2 to 1102) (unknown origin) to IC50 for GST-tagged PI4K-alpha (1 to 2044) (unknown origin)
Homo sapiens [2] = organism: Homo sapiens; experiment: Selectivity ratio of IC50 for PI3Kdelta (1 to 1044)/6xHis-tagged p85 (1 to 724) (unknown origin) to IC50 for GST-tagged PI4K-alpha (1 to 2044) (unknown origin)
Homo sapiens [3] = organism: Homo sapiens; experiment: Selectivity ratio of IC50 for PI3Kbeta (1 to 1070)/6xHis-tagged p85 (1 to 724) (unknown origin) to IC50 for GST-tagged PI4K-alpha (1 to 2044) (unknown origin)
Homo sapiens [4] = organism: Homo sapiens; experiment: Selectivity ratio of IC50 for PI3Kalpha (1 to 1068)/6xHis-tagged p85 (1 to 724) (unknown origin) to IC50 for GST-tagged PI4K-alpha (1 to 2044) (unknown origin)

Compound	Ratio IC50 (Homo sapiens [1])	Ratio IC50 (Homo sapiens [2])	Ratio IC50 (Homo sapiens [3])	Ratio IC50 (Homo sapiens [4])
COc1ncc(-c2ccc3nc(N)n(-c4ccccc4)c(=O)c3c2)cc1NS(C)(=O)=O	5	5	5	5
COc1ncc(-c2ccc3nc(N)n(-c4ccccc4C(F)(F)F)c(=O)c3c2)cc1S(=O)(=O)Nc1ccc(F)cc1F	160	160	160	160
